Measurements from PubChem BioAssay AID504842 (National Center for Advancing Translational Sciences (NCATS), 2011).
The list shows a part of the results, in another mix than the full data. Calls of active or inactive are those of the source. Calls follow the shape of the dose curve; as a rule, active = well fitted inhibition curve with a large enough effect; inconclusive = small, poorly fitted or top-dose-only effect; inactive = flat fitted curve, though single readings scatter.

test system: Chaperonin Mm-Cpn (Methanococcus maripaludis); experiment: Inhibitors of TCP-1 ring complex (TRiC) of Methanococcus maripaludis (MmCpn): qHTS; conditions: purified Mm-Cpn ATPase, ADP Transcreener TR-FRET; at 76.9 µM (top of the series); also: nearly all actives have a fitted effect of over 80% in size
Source text: The eukaryotic chaperonin TRiC (for TCP-1 ring complex) is an essential and conserved chaperone required for the folding and activation of 10-15% of the proteins encoded by the human genome. […] The TRiC complex consist of two stacked 7-9 membered rings, each containing a central cavity. Substrates are folded within the cavity in an ATP-dependent manner. TRiC is a complex of eight different, essential proteins. As each of the genes encoding the eight subunits is essential for cell viability and no protocol has been developed to over-express this enzyme to high levels. […] This assay applied the time resolved fluorescence resonance energy transfer (TR-FRET) principle. […]
Purified Mm-CPN was supplied by the laboratory of Dr. Judith Frydman. […] Plates were read on the PerkinElmer EnVision plate reader using Excitation = 320 nm and Emission = […], 665 nm. Protocol- 1.Dispense 1.5ul per well of working [Mm-CPN] = 50nM (or 75 ng / well) 2.Spin plate at 1000 rpm for 30 seconds 3.23nl of compound transferred per well 4.Incubate at 37degC for 10 minutes 5.Dispense 1.5ul per well of working [ATP] = 20uM 6.Incubate at 37degC for 30 minutes 7.Dispense 3ul per well of Anti-ADP Cryptate / ADP-d2 mix (prepared as instructed by Cisbio) 8.Incubate at ambient for 30 minutes 9.Read using EnVision
% is scaled to controls: 0 for no effect and ±100 for the full control effect.

| Compound | activity, negative = inhibition |
| --- | --- |
| CCC(=O)N(c1ccccc1)C1(COC)CCN(CCn2nnn(CC)c2=O)CC1 | inactive: 0.223% |
| CCC(=O)N(c1ccccc1)C1(COC)CCN(CCc2cccs2)CC1 | inactive: 2.12% |
